# Where a name gives a salt, the structure may show the parent alone.
# System: EpiOral® tissue models (normal human epithelial cells of oral phenotype)
# Experiment: MTT viability assay on EpiOral tissue models
# Conditions: second experiment, contact 1 h, 4 h, 18 h
structure (smiles),measurement,value
"CCC1=C[C@@H]2CN(C1)Cc1c([nH]c3ccccc13)[C@@](C(=O)OC)(c1cc3c(cc1OC)N(C)[C@H]1[C@@](O)(C(=O)OC)[C@H](OC(C)=O)[C@]4(CC)C=CCN5CC[C@]31[C@@H]54)C2 [vinorelbine, vinorelbine ditartrate salt hydrate]",ET-50 (exposure time at which percent viability has dropped to 50%),about 9.6 h
